In patent US8008262:
Where two headings read alike, the source gives them in different places.

What was measured:
hDM2 1-188, Q00987 [1] = experiment: competition FP against p53AD^Flu
hDM2 1-188, Q00987 [2] = molecular target: hDM2 1-188, Q00987
hDM2 1-188, Q00987 [3] = experiment: direct fluorescence polarization

IC50 (hDM2 1-188, Q00987 [1])	IC50 (hDM2 1-188, Q00987 [2])	Kd (hDM2 1-188, Q00987 [3])	Kd (hDM2 1-188, Q00987 [2])	Binder
2.47 µM	2.5 µM	–	–	p53AD15-31, P04637 15-31 (modifications not checked) peptide: not shown
–	–	0.34 µM	0.23 µM	fluorescein-labeled p53AD15-31 peptide, P04637 15-31 (modifications not checked) peptide: not shown
